{
  "source": "paper PMC6099451",
  "about": "“Structure and Biocatalytic Scope of Coclaurine N‐Methyltransferase” (Angewandte Chemie (International Ed. in English), 2018)",
  "key": {"[1]": {"target": "CNMT (coclaurine N-methyltransferase) (Coptis japonica, UniProt Q948P7, Y328A)", "test": "N-methylation steady-state kinetics", "conditions": "AdoMet as methyl donor; stereochemistry of 3 not stated in main text"}, "[2]": {"target": "CNMT (coclaurine N-methyltransferase) (Coptis japonica, UniProt Q948P7)", "test": "N-methylation steady-state kinetics", "conditions": "AdoMet as methyl donor; stereochemistry of 3 not stated in main text"}},
  "data": [
    {"compound": "Oc1ccc(C[C@@H]2NCCc3cc(O)c(O)cc32)cc1", "note": "[compound 3, norcoclaurine]", "values": [
      {"measurement": "Km", "setting": "[1]", "result": 601, "unit": "µM"},
      {"measurement": "Km", "setting": "[2]", "result": 265, "unit": "µM"}
    ]}
  ]
}
